Source: PubChem BioAssay (National Center for Advancing Translational Sciences (NCATS))
Compounds with a hit are over-represented: about 3.7% of the library has one in this group of screens.
A549 viability = A549 cytotoxicity, counter-screen for Nrf2 inhibitors; A549 ARE-Fluc cells, CellTiter-Fluor viability, 18-24 h; Potency, µM (doses to about 46 µM), for inactives: at the top dose activity change, negative = cytotoxicity, usual class: inhibitors; 390,000 compounds, 0.16% hits; also: potency is read from the fitted curve at half-maximal effect; % is scaled to controls: 0 for no effect and ±100 for the full control effect
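A549 ARE_Fluc cells in 5% FBS OPTI-MEM were exposed to compounds in concentration-response for 18-24 h at 37 deg C. Viability was read by CellTiter-Fluor fluorescence (Ex 405/Em 525) after 30 min, before the luciferase read.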
miR-21 reporter = raises the signal of a miR-21 reporter; AID 2288; 340,000 tested, under 10 active; Potency, µM (doses to about 38.3 µM), inactives show at the top dose reporter change, positive = more light; HeLa miR-21 FLuc reporter, luciferase, 48 h; active = well fitted rising curve with a large enough effect; inconclusive = small, poorly fitted or top-dose-only effect; inactive = no such curve, though single readings can be large or run the other way;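 note: % of control where 0% means no effect; miR-21 action dims this reporter so a rising signal means less miR-21 action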
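HeLa miR-21-FLuc reporter line, endogenous miR-21; 2000 cells/well in DMEM/10% FBS; compound titration up to ~40uM final, 48 h, 37 degree Celsius; luciferase detection reagent, 15 min lysis, CCD luminescence.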
Nrf2 ARE act = activators of Nrf2 (ARE) signaling; AREc32 ARE-luciferase reporter (MCF7-derived line), luminescence, 24 h; Potency, µM (highest dose often 46.1 µM), without a hit: at the top dose activation, actives largely listed as activators; 410,000 compounds, 0.31% hits; also: potency is read from the fitted curve at half-maximal effect; % of control where 0% means no effect; nearly all actives have a fitted effect of over 65% in size
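ARE activation measured as luciferase luminescence (Steady-Glo, 30 min RT) in AREc32_Fluc cells after 24 hr compound exposure at 37 deg C, 5% CO2; cells seeded overnight at 1000/well in OPTI-MEM, 5% FBS.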
Nrf2 block = Nrf2 pathway inhibition. Potency, µM (series often up to 46 µM), without a hit: at the highest dose activity change, negative = inhibition, usual class: inhibitors. 360,000 compounds, 2.1% hits. A549 ARE-Fluc reporter, luciferase luminescence, 18-24 h. AID 504444; also: potency is read from the fitted curve at half-maximal effect; % is scaled to controls: 0 for no effect and ±100 for the full control effect; nearly all actives have a fitted effect of over 60% in size
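Cells were seeded and rested 2 h, then exposed to compounds for 18-24 h. CellTiter-Fluor was read first as a viability measure. BugLite was added 15 min before the final luminescent read of ARE-luciferase activity in A549 cells.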
ClpP mod = qHTS Assay for Activators of ClpP | purified B. subtilis ClpP, FRET peptide cleavage, 20 min | AID 651965, 2013 | 340,000 compounds, 1.9% hits | Potency, µM (doses to about 57.5 µM), for inactives: top-dose activity change, negative = active | ATP-dependent Clp protease proteolytic subunit (Bacillus subtilis (strain 168)), P80244; active = well fitted falling curve with a large enough effect; inconclusive = small, poorly fitted or top-dose-only effect; inactive = no such curve, though single readings can be large or run the other way; also: potency is read from the fitted curve at half-maximal effect; the source files actives as falling curves though it sought activators and does not explain the sign; nearly all actives have a fitted effect of over 65% in size
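FRET quenching reversal measured ClpP activation: 10 microg/mL B. subtilis ClpP at pH 8 with the FRET-FV decapeptide, read at 430 nm after 320 nm excitation. The 20-min minus 0-min signal was scaled between DMSO/no-enzyme wells and ADEP (5.8 microM final).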
p53 reactivation = restores transcriptional activity of mutant p53; H1299 p53-A138V BP100-luciferase reporter, luminescence, 24 h; Potency, µM (titrated, usually from 92.2 µM), inactives show at the top dose activity change, positive = activation, usual class: activators; 320,000 compounds, 0.063% hits; also: potency is read from the fitted curve at half-maximal effect; % of control where 0% means no effect; nearly all actives have a fitted effect of over 45% in size
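p53-null H1299 cells stably carrying temperature-sensitive p53-A138V and a BP100-luciferase reporter were pinned with compounds (4-point, 1:5 series) and held 24 hrs at 37 deg C. Luminescence was read 10 min after detection reagent.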
* hit, by the source's call; ? = inconclusive; . = no result given; [ ] = remark or other dose. Unless noted, calls follow the shape of the dose curve; as a rule, active = well fitted curve in the direction sought with a large enough effect; inconclusive = small, poorly fitted or top-dose-only effect, or another doubt; inactive = no such curve, though single readings can be large; an effect the other way counts as inactive or inconclusive.

Sequences of proteins named here, by UniProt entry; tags and fusion partners are left off.
ATP-dependent Clp protease proteolytic subunit (Bacillus subtilis (strain 168)), P80244, UniProt P80244, whole entry, looked up: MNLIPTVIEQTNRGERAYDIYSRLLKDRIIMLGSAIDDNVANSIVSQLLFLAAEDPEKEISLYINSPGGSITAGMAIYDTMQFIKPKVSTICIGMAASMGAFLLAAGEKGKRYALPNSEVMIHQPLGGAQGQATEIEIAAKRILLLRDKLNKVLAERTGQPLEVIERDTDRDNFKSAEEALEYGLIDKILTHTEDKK

item	Compound	A549 viability	miR-21 reporter	Nrf2 ARE act	Nrf2 block	ClpP mod	p53 reactivation
1	CC1C/C(=C/c2ccccn2)C(=O)/C(=C/c2ccccn2)C1 (stereo not given)	?	?	-1%	16µM*	.	-11%
2	CC(C)(C)C1C/C(=C/c2ccccn2)C(=O)/C(=C/c2ccccn2)C1 (stereo not given)	5.8µM*	?	?	5.8µM*	-1%	-10%
3	COc1cc(CNC(=O)c2ccc3c(c2)N(C)C(=O)C2CCCCN32)cc(OC)c1OC (stereo not given)	16%	-7%	9%	.	-3%	.
4	Cc1cccc(NC(=O)CCC(=O)c2cccs2)n1	0%	.	8%	?	3.5µM*	7%
5	Cc1cc(C)nc(-n2nc(C)cc2NC(=O)COC(=O)CCC(=O)c2cccs2)n1	4%	-1%	2%	18%	28µM*	-1%
6	O=C(Nc1cccc([N+](=O)[O-])c1)Nc1cccs1	2%	12%	7.1µM*	1%	11%	27%
7	O=C(O)c1cccc(NS(=O)(=O)c2ccc(Cl)c(C(=O)Nc3cccc([N+](=O)[O-])c3)c2)c1	0%	.	0%	4%	1%	.
8	O=C(Nc1cccc([N+](=O)[O-])c1)c1ccc(-c2ccccc2)cc1	4%	-34%	0%	2%	1%	10%
9	CS(=O)(=O)Nc1ccc(C(=O)Nc2cccc([N+](=O)[O-])c2)cc1	-5%	-6%	6.3µM*	-16%	.	2%
10	CN(C)S(=O)(=O)c1ccc(Cl)c(C(=O)Nc2cccc([N+](=O)[O-])c2)c1	-1%	16%	13%	9.2µM*	0%	1%
11	COc1cc(C)ccc1OCCn1c(-c2ccc(Cl)cc2)nc2ccccc2c1=O	4%	-3%	0%	11%	0%	.
12	Cc1ccc(CNC(=O)CS(=O)(=O)c2cccc3nsnc23)cc1	-2%	-1%	0%	.	-3%	.

item	Compound	A549 viability	miR-21 reporter	Nrf2 ARE act	Nrf2 block	ClpP mod	p53 reactivation
13	CC(OC(=O)/C=C/c1ccc2ccccc2n1)C(=O)N(C)c1ccccc1 (stereo not given)	-5%	.	0%	-4%	-2%	27%
14	COc1ccccc1NC(=O)C(C)OC(=O)/C=C/c1ccc2ccccc2n1 (stereo not given)	2%	.	18µM*	2%	-3%	?
15	Nc1cc(-c2ccc(Br)cc2)nn1S(=O)(=O)c1ccccc1	-1%	-10%	0%	3%	1%	-1%
16	COc1ccc(-c2cc(N)n(S(=O)(=O)c3ccc(F)cc3)n2)cc1OC	-5%	17%	0%	16µM*	0%	9%
17	Nc1cc(-c2ccccc2)nn1S(=O)(=O)c1ccc(F)cc1	-2%	22%	0%	18µM*	1%	0%
18	COc1cc(-c2cc(N)n(S(=O)(=O)c3ccc(F)cc3)n2)cc(OC)c1OC	1%	17%	13%	?	-4%	-6%
19	CS(=O)(=O)c1ccccc1-c1nnc(-c2ccc(Cl)cc2)o1	3%	-47%	2%	24%	.	2%
20	O=S(=O)(Cc1ccc(Cl)cc1)c1ccccc1-c1nnc(-c2ccccc2)o1	-10%	-5%	-1%	-7%	32µM*	2%
21	O=C(NCCc1csc(-c2ccc(F)cc2)n1)C(=O)Nc1ccc(Cl)cc1	11%	-4%	-1%	.	-2%	.
22	CC(=O)c1[nH]c(C)c(C(=O)N2CCCC(Nc3ccc(C(C)C)cc3)C2)c1C (stereo not given)	?	-1%	0%	15µM*	-1%	.
23	CC(=O)c1[nH]c(C)c(C(=O)N2CCCC(Nc3cccc(F)c3)C2)c1C (stereo not given)	-7%	1%	0%	1%	1%	-1%
24	CCCCNc1nc2c(c(=O)n(Cc3ccc(Cl)c(Cl)c3)c(=O)n2C)n1C	-7%	?	0%	?	1%	.

item	Compound	A549 viability	miR-21 reporter	Nrf2 ARE act	Nrf2 block	ClpP mod	p53 reactivation
25	c1csc(C2=Nn3c(nnc3-c3ccncc3)SC2)c1	-4%	24%	3%	16µM*	1%	-4%
26	CCc1ccc(-c2cc(C(F)(F)F)n3nc(C(=O)Nc4cnn(Cc5ccc(C)cc5)c4)cc3n2)s1	26µM*	0%	0%	8.2µM*	-16%	1%
27	Cc1ccccc1Cn1cc(NC(=O)c2cc3nc(-c4ccco4)cc(C(F)(F)F)n3n2)cn1	-2%	-7%	0%	?	69%	-16%
28	CN1CCc2sc(NC(=O)Cc3ccccc3)c(C(=O)Nc3ccc(Cl)cc3)c2C1	-3%	.	.	18%	.	.
29	Cc1ccc(-c2ccc(CCC(=O)O)o2)cc1	10%	-21%	3%	7%	16µM*	19%
30	O=C(O)CCc1ccc(-c2cccs2)o1	5%	-3%	12%	13%	-9%	-17%
31	Cc1ccc2occ(C(=O)c3ccco3)c(=O)c2c1	-3%	-32%	13µM*	20%	1%	11%
32	O=C(c1cc(C(=O)c2ccco2)cc(C(=O)c2ccco2)c1)c1ccco1	-1%	-8%	5%	-3%	.	15%
33	Cc1ccc(OCC(=O)N(Cc2ccccc2)C(C)C)c([N+](=O)[O-])n1	0%	-16%	0%	10%	3.2µM*	-3%
34	Cc1ccc(OCC(=O)N(Cc2ccccc2)C(C)(C)C)c([N+](=O)[O-])n1	1%	-9%	0%	-28%	-2%	41%
35	Cn1c(=S)[nH]c2cc(C(=O)N3CCN(C(=O)c4ccccc4)CC3)ccc2c1=O	6%	.	.	-13%	-1%	.
36	CCOc1cc2c(C#N)c(N3CCNCC3)nc(N)c2c(N)n1	?	-2%	1%	-10%	35µM*	14%

Fetched one by one from the entries so far (five):
item	Compound	A549 viability	miR-21 reporter	Nrf2 ARE act	Nrf2 block	ClpP mod	p53 reactivation
25	c1csc(C2=Nn3c(nnc3-c3ccncc3)SC2)c1	-4%	24%	3%	16µM*	1%	-4%
28	CN1CCc2sc(NC(=O)Cc3ccccc3)c(C(=O)Nc3ccc(Cl)cc3)c2C1	-3%	.	.	18%	.	.
29	Cc1ccc(-c2ccc(CCC(=O)O)o2)cc1	10%	-21%	3%	7%	16µM*	19%
34	Cc1ccc(OCC(=O)N(Cc2ccccc2)C(C)(C)C)c([N+](=O)[O-])n1	1%	-9%	0%	-28%	-2%	41%
36	CCOc1cc2c(C#N)c(N3CCNCC3)nc(N)c2c(N)n1	?	-2%	1%	-10%	35µM*	14%

Carrying on:
item	Compound	A549 viability	miR-21 reporter	Nrf2 ARE act	Nrf2 block	ClpP mod	p53 reactivation
37	CCOc1cc2c(C#N)c(N3CCCCC3)nc(N)c2c(N)n1	0%[1.84 µM]	0%	1%	-21%	25µM*	5%
38	FC(F)Oc1ccc(NC(=S)N2CCN(Cc3ccccc3)CC2)cc1	16%	4%	3%	15%	8.9µM*	6%
39	Nc1nnc(-c2cn(-c3ccccc3)nc2-c2ccccc2)o1	-21%	-19%	4%	-50%	25µM*	-2%
40	C(=N\NC1=Nc2cccc3cccc1c23)/c1ccccc1	5%	-59%	10%	?	-2%	50µM*
41	CC(C)Cc1nn2c(=O)cc(COC(=O)c3cccc(NC(=O)CCc4ccccc4)c3)nc2s1	-9%	4%	0%	.	-2%	.
42	COc1cc(/C=C/C(=O)OCC(=O)Nc2nnc(-c3ccccc3)o2)cc(OC)c1OC	-1%	.	-1%	-2%	18µM*	-5%
43	COc1ccc(CN(C)C(=O)CCC(=O)N2CCN(S(=O)(=O)c3ccc(Cl)cc3)CC2)c(OC)c1	-14%	.	-1%	12µM*	0%	.
